According to patent US20040259833A1 (priority 1999, published 2004):
Where two headings read alike, the source gives them in different places.

Chains of the proteins cited; added tags and fusions are not shown. Lines headed by an entry give the natural chain unless they say otherwise; changes in a name come on top.
UniProt P0CAW2: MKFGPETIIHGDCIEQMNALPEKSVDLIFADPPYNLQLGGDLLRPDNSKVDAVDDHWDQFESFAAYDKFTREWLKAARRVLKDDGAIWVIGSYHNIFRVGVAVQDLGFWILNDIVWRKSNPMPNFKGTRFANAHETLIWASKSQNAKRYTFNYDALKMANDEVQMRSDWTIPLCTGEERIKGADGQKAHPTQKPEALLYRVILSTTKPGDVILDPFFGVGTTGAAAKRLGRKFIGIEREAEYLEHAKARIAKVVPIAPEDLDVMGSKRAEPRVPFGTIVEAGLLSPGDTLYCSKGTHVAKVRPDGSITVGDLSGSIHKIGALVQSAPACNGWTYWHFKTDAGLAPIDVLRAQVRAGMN

Target: CcrM (UniProt P0CAW2)
Experiment: In vitro adenine DNA methyltransferase inhibition assay, CcrM
Format: biochemical, Caulobacter cresentus or Brucella abortus
Details: Table I, inhibition of CcrM
[1] = read-out: Ki (calculated from a Dixon plot), inhibitor 0-150 μM or 0-80 μM
[2] = read-out: Ki (estimated from IC50's)

SMILES: NC(CCSCNc1ncnc2c1ncn2C1CC(O)C(CO)O1)C(=O)O (stereo not drawn)
- Ki [1]: 41 µM

SMILES: NC(CCSCNc1ncnc2c1ncn2C1OC(CO)C(O)C1O)C(=O)O (stereo not drawn)
- IC50: 2000 µM
- Ki [2]: 160 µM

SMILES: NC(CCSCNc1ncnc2c1ncn2C1CC(O)C(COP(=O)(O)O)O1)C(=O)O (stereo not drawn)
- Ki [1]: 13 µM

SMILES: NC(CCSCNc1ncnc2c1ncn2C1OC(COP(=O)(O)O)C(O)C1O)C(=O)O (stereo not drawn)
- IC50: 1000 µM
- Ki [2]: 80 µM
